Literature values, collected in Sander's compilation of Henry's law constants.

Assay: Henry solubility constant Hcp at 298.15 K (mol/(m3 Pa))
Conditions: cited value
[1] = reference: Burkholder et al. (2015)
[2] = reference: Burkholder et al. (2019)
[3] = reference: Sander et al. (2006)
[4] = reference: Sander et al. (2011)

Row | SMILES | Henry solubility constant Hcp [1] | Henry solubility constant Hcp [2] | Henry solubility constant Hcp [3] | Henry solubility constant Hcp [4] | Henry solubility constant Hcp (reference: Brockbank (2013)) | Henry solubility constant Hcp (reference: Goldstein (1982)) | Henry solubility constant Hcp (reference: Pierotti et al. (1959))
1 | CCC(C)O[N+](=O)[O-] (configuration not stated) [2-butyl nitrate] | 0.0064 | 0.0064 | 0.0064 | 0.0064 |  |  | 
2 | CCl [chloromethane] | 0.0011 | 0.001 | 0.0013 | 0.0013 | 0.001 | 0.00029 | 
3 | CCCCOCCCC [dibutyl ether] |  |  |  |  | 0.0021 |  | 0.0016
